Antibody variant affinities, Ab-14 light chain, assay 1

All variants were tested on one target, the spike HR2 peptide PDVDLGDISGINAS (SARS-CoV-2).

Parent: Ab-14, a human scFv built as VH, the linker GGGGSGGGGSGGGGS, VL. Only the CDRs of the light chain vary.
VH: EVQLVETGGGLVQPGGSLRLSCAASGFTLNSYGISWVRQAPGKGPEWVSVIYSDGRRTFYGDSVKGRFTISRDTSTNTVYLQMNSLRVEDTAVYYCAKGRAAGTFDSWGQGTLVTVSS
VL: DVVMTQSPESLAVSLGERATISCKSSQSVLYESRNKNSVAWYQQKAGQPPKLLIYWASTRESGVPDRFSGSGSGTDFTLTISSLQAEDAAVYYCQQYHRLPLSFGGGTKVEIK

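The starting antibody came from a phage panning campaign against this peptide. Variants in AAYL50 differ from the parent at up to three CDR positions; double and triple changes were sampled at random. Affinity was read by AlphaSeq, a pooled yeast mating assay with surface-displayed partners. Binding brings cells together so that they mate, and sequencing counts the barcode pairs among the diploids. Each replicate has its own calibration line, from reference interactions of the BCL2 family. The assay was run in three technical replicates.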

Changes read parent residue, position, new residue, counted from the first residue of the VL shown. Kd is apparent (estimated from mating counts) and averaged on the log scale over replicates with a signal. Smaller is tighter. "nd" marks a missing value. The strain was present, yet no cells mated with the target were sequenced in any replicate, which points to weak or no binding. The list is sorted by this average, lowest first, undetected variants last. For reference, the parent read 4.4 nM as the reference entry and 48 nM as a member of this library.

changes	Kd (apparent)	seen in	empty controls
Y31M/W56E/R60L	930 pM	3/3	5/9
S25M/R34N/L102I	1.7 nM	3/3	1/9
S28P/S38W/H98A	3.7 nM	3/3	0/9
E32H/R34Y/H98K	5.2 nM	3/3	1/9
S26R/V29G/Q95K	11 nM	3/3	0/9
V29A/S58C/L102W	20 nM	1/3	1/9
S62C/L102F	24 nM	3/3	7/9
V29Q/S58A/Y97F	27 nM	3/3	0/9
Y31Q/N35E/P101G	31 nM	3/3	1/9
K24D/S62M	48 nM	3/3	1/9
L30Q/K36I/T59A	58 nM	3/3	6/9
K24N/Q27T/Y31D	120 nM	3/3	1/9
S38A/Q96P/H98E	210 nM	3/3	1/9
S28A/Y31H/N37I	360 nM	3/3	0/9
N37Q/W56F/A57M	430 nM	3/3	2/9
V29S/E32L/S38G	470 nM	3/3	2/9
T59L/Q95R/Q96K	630 nM	1/3	0/9
S33N/N37F/S103R	820 nM	3/3	4/9
Q27N/A40M/S62G	1.0 µM	1/3	3/9
Q27V/K36W/T59H	1.2 µM	3/3	4/9
S25T/E61W/L100A	2.3 µM	1/3	0/9
Q27A/S28A/Y97T	2.5 µM	1/3	3/9
Q27D/S58Q/Y97I	2.8 µM	3/3	2/9
Q27P/A57P/T59V	3.8 µM	1/3	0/9
R34W/S38E	5.2 µM	2/3	3/9
S25E/V39S/A57D	6.4 µM	2/3	4/9
Y31P/E32V/R99C	6.6 µM	2/3	1/9
E32V/R60K	8.6 µM	2/3	0/9
S33D/S58H/Y97M	11 µM	2/3	0/9
L30E/S38F/W56P	11 µM	2/3	4/9
N37W/L100H/L102S	12 µM	2/3	3/9
K24T/S33W/S58C	14 µM	3/3	2/9
S28L/V39Y	16 µM	2/3	1/9
V29G/A40T/Q96V	16 µM	1/3	0/9
E32P/V39T/S62I	19 µM	3/3	6/9
S26M/N37V/Y97G	20 µM	3/3	4/9
Q27R/E32G/Q96P	96 µM	3/3	8/9
N35C/A57H/S62P	170 µM	1/3	1/9
E32R/W56L/L102Y	940 µM	1/3	5/9
N37S/T59M/L102P	1.0 mM	1/3	7/9
L30S/A57H/T59Y	nd	0/3	2/9
V29S/A40S/T59F	nd	0/3	2/9
R34N/H98L/S103G	nd	0/3	0/9
S38Q/R60Q/R99M	nd	0/3	1/9
L30E/N37W/A40V	nd	0/3	0/9
S25R/V39G/W56H	nd	0/3	1/9
N37H/Q95G	nd	0/3	0/9
V39G/W56T	nd	0/3	1/9

The closing 4 entries, repeated:

changes	Kd (apparent)	seen in	empty controls
L30E/N37W/A40V	nd	0/3	0/9
S25R/V39G/W56H	nd	0/3	1/9
N37H/Q95G	nd	0/3	0/9
V39G/W56T	nd	0/3	1/9

Background: pairings of library AAYL50 with three empty control strains gave a value in 18% of cases (median 15 µM, 5th percentile 970 nM). Values in that range, when seen in few replicates, are hard to tell from nonspecific mating. For each scFv, signals with the empty controls are counted beside the result.

Data: MIT Lincoln Laboratory AlphaSeq set, Engelhart et al. 2022, doi:10.1038/s41597-022-01779-4, as distributed in FLAb.